This test has as its target T1, MATE1 (Homo sapiens, UniProt Q96FL8).
T1 sequence (Q96FL8 1-570): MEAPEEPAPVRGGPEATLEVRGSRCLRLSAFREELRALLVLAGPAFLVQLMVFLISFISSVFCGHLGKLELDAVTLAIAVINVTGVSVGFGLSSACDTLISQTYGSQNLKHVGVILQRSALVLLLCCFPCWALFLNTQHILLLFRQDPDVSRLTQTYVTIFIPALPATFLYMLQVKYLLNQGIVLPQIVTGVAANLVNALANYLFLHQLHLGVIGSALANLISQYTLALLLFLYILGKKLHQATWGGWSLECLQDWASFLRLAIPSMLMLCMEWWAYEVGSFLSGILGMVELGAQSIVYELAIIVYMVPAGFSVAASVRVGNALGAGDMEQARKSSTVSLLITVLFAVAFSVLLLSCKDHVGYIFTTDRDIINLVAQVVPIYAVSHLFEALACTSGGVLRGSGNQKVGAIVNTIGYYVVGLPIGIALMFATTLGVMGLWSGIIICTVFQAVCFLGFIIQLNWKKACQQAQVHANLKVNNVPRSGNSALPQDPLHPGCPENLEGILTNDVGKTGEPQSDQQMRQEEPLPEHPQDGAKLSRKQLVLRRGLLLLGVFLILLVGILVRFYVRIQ
The experiment in a line: Inhibitor of MATE1, probe substrate uptake. To be noted: after treatment with phenylacetic acid.

SMILES strings stand for the structures.

As to `O=C(O)Cc1ccccc1` [Phenylacetic acid, phenylacetic acid], the “Accumulation of tetraethyl ammonium, % of initial uptake (MATE1)” value came to 2440%.
